Experimental data taken from patent US4362718A, “Agent for curing peripheral circulation insufficiency” (Yamanouchi Pharmaceutical Co., Ltd., priority 1979, dated 1982).

What was measured:
[1] = system: red blood corpuscles; conditions: 0.1% solution; saline alone as high as 20%
[2] = system: red blood corpuscles; assay: Fine opening passability of red blood corpuscles (nitrocellulose membrane filter, 3.0 μm); type: cell-based, human; conditions: 0.1% solution; 37° C., 30 minutes; 3.0 μm filter, 80 mmHg/cm^2; compared with α1 -acid glycoprotein

human albumin: commercially available crude human albumin (0.1% solution)
percent hemolysis in case of passing through fine openings [1]: 25 to 30%
passage of red blood corpuscles through the filter [2]: passage of the red blood corpuscles was observed too, but the effect was small as compared with the case of α1 -acid glycoprotein
